Values joined by “and” are separate entries in the source; they are usually repeats but may differ in a detail not shown here. Equal values may be shown once.

Chains of the proteins cited; added tags and fusions are not shown. Lines headed by an entry give the natural chain unless they say otherwise; changes in a name come on top.
UniProt P14635, whole entry, looked up: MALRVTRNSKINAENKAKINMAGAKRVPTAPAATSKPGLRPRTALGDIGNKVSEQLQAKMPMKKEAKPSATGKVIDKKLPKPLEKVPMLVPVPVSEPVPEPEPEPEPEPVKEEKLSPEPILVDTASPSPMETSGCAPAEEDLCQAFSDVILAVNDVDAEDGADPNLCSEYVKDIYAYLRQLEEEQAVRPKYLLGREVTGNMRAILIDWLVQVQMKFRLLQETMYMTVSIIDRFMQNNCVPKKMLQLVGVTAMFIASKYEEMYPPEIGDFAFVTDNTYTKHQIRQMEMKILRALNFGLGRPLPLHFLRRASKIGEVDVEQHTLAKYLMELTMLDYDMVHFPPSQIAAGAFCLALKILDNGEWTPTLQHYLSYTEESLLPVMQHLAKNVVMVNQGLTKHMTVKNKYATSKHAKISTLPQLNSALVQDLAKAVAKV
UniProt P11802: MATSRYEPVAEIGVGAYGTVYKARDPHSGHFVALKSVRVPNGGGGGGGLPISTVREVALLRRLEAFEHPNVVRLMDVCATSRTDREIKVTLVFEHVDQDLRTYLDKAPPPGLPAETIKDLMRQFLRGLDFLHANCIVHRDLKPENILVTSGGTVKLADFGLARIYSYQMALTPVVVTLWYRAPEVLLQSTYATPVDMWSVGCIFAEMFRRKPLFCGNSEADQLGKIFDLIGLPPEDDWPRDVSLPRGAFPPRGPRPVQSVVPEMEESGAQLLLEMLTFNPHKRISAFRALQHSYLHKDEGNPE
UniProt P30281: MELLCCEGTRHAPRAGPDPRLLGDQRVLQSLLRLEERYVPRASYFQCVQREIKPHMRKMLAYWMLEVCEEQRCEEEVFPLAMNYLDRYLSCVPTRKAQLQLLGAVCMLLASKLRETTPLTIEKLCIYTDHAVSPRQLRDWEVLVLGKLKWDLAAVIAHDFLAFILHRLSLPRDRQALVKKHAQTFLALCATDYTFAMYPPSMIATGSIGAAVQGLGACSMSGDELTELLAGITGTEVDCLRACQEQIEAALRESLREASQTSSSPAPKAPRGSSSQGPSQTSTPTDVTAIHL
UniProt Q00535, whole entry, looked up: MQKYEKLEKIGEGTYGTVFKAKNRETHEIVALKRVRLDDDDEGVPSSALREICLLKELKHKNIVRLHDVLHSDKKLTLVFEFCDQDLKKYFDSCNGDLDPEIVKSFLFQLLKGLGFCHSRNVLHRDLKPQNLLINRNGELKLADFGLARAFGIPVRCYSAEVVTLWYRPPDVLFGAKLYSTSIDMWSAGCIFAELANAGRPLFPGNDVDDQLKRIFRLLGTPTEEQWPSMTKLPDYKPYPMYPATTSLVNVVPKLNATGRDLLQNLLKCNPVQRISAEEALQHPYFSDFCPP
UniProt P50613: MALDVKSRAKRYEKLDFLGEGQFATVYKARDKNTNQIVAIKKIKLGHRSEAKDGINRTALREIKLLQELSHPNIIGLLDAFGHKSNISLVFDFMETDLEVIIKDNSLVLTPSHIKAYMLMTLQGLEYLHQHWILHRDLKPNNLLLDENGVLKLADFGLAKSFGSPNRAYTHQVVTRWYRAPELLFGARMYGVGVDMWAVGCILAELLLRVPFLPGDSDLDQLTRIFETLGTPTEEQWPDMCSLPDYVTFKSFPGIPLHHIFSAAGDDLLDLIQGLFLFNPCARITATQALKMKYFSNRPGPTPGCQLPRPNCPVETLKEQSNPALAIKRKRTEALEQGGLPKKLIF
UniProt P51946: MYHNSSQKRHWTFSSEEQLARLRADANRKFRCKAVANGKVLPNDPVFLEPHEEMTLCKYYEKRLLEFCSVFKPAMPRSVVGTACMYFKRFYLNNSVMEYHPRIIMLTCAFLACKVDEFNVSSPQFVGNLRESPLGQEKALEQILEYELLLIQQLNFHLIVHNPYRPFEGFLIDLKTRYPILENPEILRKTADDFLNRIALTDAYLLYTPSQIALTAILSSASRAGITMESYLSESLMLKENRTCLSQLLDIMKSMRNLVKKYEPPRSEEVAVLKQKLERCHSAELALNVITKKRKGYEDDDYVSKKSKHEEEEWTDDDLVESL
UniProt P50750, whole entry, looked up: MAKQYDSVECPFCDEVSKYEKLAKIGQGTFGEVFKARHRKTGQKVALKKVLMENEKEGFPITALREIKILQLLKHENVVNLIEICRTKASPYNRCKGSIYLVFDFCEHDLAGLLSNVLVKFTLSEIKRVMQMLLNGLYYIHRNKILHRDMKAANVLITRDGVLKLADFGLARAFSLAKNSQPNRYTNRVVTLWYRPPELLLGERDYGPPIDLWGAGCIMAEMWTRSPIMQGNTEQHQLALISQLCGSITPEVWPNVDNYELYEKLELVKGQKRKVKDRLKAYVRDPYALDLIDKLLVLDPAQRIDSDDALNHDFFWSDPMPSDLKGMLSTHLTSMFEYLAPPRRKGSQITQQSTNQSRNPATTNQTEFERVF
UniProt P48729: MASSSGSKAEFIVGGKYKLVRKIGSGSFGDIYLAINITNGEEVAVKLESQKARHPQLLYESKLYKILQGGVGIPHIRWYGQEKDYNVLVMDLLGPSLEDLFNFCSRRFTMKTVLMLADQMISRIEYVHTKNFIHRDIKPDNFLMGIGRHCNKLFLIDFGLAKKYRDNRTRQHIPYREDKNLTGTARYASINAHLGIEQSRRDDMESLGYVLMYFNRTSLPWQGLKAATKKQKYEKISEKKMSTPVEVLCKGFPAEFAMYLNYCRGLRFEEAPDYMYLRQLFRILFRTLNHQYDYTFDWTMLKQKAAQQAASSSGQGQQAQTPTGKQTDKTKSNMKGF
UniProt P06241, whole entry, looked up: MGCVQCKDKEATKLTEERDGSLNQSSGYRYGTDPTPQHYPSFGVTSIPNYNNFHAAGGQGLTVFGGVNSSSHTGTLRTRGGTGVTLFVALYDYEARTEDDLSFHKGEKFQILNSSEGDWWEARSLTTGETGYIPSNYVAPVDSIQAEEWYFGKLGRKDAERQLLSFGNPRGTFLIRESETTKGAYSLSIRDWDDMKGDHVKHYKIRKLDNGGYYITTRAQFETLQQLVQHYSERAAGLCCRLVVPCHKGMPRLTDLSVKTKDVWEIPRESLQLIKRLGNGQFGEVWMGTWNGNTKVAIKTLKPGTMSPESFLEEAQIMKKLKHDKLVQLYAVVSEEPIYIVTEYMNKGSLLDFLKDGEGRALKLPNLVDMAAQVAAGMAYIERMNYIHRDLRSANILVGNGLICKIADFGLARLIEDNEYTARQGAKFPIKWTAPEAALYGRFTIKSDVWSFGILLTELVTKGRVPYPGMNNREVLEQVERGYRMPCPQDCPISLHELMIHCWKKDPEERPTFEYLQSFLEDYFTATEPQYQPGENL
UniProt P34947, whole entry, looked up: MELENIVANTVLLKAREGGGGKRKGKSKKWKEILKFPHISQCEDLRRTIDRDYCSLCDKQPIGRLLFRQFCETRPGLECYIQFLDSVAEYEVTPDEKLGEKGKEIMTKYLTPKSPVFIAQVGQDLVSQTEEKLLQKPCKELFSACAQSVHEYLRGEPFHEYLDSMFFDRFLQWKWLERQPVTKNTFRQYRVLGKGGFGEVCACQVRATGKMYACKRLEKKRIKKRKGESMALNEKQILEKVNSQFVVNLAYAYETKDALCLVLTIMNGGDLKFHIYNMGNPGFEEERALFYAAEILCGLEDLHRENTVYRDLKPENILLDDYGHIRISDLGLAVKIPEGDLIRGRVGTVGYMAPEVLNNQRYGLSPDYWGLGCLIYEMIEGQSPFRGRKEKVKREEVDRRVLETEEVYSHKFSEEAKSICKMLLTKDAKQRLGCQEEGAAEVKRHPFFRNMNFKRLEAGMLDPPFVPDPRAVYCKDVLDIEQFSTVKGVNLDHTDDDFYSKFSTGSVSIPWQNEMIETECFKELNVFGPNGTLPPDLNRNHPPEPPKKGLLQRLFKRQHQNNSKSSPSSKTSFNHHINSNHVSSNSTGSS
UniProt Q9HBH9: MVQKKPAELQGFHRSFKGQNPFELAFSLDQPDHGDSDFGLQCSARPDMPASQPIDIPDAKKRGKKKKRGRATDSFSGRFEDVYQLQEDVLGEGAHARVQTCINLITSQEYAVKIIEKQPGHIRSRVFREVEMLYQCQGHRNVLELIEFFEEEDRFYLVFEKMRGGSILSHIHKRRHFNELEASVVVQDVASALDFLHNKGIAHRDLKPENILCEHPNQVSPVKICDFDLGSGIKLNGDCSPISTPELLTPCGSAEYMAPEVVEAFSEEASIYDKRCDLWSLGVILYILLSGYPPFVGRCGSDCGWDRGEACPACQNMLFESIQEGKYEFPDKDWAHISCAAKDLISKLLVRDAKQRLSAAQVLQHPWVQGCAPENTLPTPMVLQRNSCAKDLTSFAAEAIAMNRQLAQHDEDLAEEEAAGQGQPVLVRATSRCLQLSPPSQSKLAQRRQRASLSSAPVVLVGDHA
UniProt P51956: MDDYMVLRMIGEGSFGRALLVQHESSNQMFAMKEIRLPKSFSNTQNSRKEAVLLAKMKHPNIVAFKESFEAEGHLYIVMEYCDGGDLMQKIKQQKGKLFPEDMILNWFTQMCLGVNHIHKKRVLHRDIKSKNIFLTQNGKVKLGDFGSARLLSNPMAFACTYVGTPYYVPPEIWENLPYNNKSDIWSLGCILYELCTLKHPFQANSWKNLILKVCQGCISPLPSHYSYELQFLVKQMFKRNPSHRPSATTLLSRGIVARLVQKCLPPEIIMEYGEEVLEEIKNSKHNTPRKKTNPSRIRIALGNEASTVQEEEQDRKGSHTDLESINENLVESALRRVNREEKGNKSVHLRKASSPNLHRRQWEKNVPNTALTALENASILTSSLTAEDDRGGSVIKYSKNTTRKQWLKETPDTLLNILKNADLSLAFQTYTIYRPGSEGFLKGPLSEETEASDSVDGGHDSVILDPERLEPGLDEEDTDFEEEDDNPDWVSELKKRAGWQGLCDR
UniProt P11309, whole entry, looked up: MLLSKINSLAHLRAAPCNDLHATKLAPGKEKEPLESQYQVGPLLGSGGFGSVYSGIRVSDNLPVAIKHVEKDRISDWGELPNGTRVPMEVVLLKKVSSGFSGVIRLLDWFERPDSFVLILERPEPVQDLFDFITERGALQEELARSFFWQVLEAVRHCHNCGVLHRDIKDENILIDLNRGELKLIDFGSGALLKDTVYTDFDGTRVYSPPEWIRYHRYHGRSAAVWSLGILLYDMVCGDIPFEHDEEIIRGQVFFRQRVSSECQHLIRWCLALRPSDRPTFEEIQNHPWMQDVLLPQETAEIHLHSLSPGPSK
UniProt Q13976: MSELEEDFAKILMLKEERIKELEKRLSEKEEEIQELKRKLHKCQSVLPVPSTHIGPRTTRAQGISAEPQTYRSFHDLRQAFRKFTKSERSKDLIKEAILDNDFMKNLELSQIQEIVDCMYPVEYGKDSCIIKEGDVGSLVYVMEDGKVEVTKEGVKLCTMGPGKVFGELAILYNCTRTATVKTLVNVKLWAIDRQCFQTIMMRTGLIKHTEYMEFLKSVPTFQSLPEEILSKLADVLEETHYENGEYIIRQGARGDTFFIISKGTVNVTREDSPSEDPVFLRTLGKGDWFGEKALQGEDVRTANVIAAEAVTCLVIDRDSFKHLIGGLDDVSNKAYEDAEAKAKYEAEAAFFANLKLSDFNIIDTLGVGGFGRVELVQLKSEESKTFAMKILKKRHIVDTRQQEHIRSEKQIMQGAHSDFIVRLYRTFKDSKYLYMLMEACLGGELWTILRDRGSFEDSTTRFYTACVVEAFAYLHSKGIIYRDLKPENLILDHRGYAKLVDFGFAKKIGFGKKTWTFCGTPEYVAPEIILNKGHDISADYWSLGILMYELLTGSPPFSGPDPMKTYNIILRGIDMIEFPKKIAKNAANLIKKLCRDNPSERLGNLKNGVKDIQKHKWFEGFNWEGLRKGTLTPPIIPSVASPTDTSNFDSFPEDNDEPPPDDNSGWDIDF
UniProt O15530: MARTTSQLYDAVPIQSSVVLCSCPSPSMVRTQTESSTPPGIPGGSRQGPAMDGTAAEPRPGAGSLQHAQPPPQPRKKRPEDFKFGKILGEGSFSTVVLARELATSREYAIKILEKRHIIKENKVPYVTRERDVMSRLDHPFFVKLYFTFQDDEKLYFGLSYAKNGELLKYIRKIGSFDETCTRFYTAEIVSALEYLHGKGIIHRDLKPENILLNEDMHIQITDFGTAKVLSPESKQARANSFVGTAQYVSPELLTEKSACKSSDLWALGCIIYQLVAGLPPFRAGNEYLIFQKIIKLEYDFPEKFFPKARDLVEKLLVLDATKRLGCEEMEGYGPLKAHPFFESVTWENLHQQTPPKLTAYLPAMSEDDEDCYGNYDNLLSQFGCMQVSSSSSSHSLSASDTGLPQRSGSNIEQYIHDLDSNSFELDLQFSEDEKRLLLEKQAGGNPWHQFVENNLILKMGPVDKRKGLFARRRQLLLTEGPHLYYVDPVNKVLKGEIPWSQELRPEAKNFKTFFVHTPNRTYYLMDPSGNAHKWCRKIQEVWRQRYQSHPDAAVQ

Among the targets are CDK1 CCNB1 (human) (UniProt P06493+P14635); CDK4 CCND1 (human) (UniProt P24385+P11802); CDK4 CCND3 (human) (UniProt P30281+P11802); CDK5 CDK5R1 p25 (human) (UniProt Q00535+Q15078); CDK5 CDK5R1 p35 (human) (UniProt Q00535+Q15078); CDK6 CCND1 (human) (UniProt Q00534+P24385); CDK6 CCND3 (human) (UniProt P30281+Q00534); CDK7 CCNH MNAT1 (human) (UniProt P50613+P51948+P51946); CDK9 CCNK (human) (UniProt O75909+P50750); CDK9 CCNT1 (human) (UniProt P50750+O60563); CSNK1A1 (human) (UniProt P48729); DYRK1A (human) (UniProt Q13627); FYN (human) (UniProt P06241); GRK5 (human) (UniProt P34947); IRAK1 (human) (UniProt P51617); MAP3K7 TAB1 (human) (UniProt O43318+Q15750); MARK2 (human) (UniProt Q7KZI7); MKNK2 (human) (UniProt Q9HBH9); NEK3 (human) (UniProt P51956); PIM1 (human) (UniProt P11309); PRKG1 (human) (UniProt Q13976); STK24 (human) (UniProt Q9Y6E0); PDPK1 (human) (UniProt O15530).

Holding throughout (assay): radiometric filter-binding kinase assay, Kinase HotSpot
What all share (conditions): compound 0.5 µM; ATP 10 µM

Take `O=C1c2ccccc2-[n+]2ccc3c([nH]c4ccccc43)c21`: the residual activity (usually the signal under treatment as a percentage of the control signal) on CDK1 CCNB1 (human) was found to be 53.5%; at CDK4 CCND1 (human) it was 63.4%; on CDK4 CCND3 (human), 76.8%; on CDK5 CDK5R1 p25 (human), 70.3%; at CDK5 CDK5R1 p35 (human) it was 85%; on CDK6 CCND1 (human), 70.1%. Further, the residual activity was found to be 59.8% on CDK6 CCND3 (human); 114% on CDK7 CCNH MNAT1 (human); 96% on CDK9 CCNK (human); 84.2% on CDK9 CCNT1 (human); 118% at CSNK1A1 (human); 105% at DYRK1A (human). Further, the residual activity at FYN (human) was 100%; on GRK5 (human), 105%; on IRAK1 (human), 103%; at MAP3K7 TAB1 (human), 96.9%; at MARK2 (human) it was 91.5%; on MKNK2 (human) it was 85%. For the same compound, the residual activity on NEK3 (human) was 102%; on PIM1 (human), 96.5%; at PRKG1 (human) it was 95.8% and 97%; at STK24 (human), 90.4%.
Take `COc1cc(OC)c(/C=C2\C(=O)Nc3ccccc32)c(OC)c1`: the residual activity is 107% on GRK5 (human); 114% at NEK3 (human); 96.1% on PDPK1 (human); 95.1% at PIM1 (human); 91.3% and 96.4% on PRKG1 (human).

These data come from the kinase profiling compilation of Christmann-Franck et al. (2016).
